Test results published in PubChem BioAssay AID625 (Vanderbilt High Throughput Screening Facility, 2007).
The list shows a part of the results, in another mix than the full data. Some tests of the compounds listed are not included; inactive here does not mean inactive elsewhere. Activity calls are given as the source filed them.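 The calls were made as follows: active = fluorescence slope after compound addition differing from the mean of all tested samples at 99.7% confidence, mostly higher but some lower; inactive = the rest.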

Amino acid sequences for entries named in this document (tags omitted).
UniProt P08173, whole entry, looked up: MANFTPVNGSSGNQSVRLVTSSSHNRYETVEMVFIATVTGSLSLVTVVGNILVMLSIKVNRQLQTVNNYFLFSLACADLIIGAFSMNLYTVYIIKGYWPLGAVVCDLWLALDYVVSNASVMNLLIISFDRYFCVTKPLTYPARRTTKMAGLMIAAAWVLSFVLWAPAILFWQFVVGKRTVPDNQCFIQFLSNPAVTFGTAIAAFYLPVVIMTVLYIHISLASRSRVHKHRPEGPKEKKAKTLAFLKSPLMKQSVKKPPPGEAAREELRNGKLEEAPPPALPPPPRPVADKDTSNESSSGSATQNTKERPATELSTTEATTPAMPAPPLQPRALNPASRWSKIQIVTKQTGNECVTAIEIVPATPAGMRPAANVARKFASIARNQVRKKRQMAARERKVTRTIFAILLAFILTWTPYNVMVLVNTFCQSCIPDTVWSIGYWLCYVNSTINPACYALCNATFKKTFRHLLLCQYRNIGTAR

What follows are compounds tested against Muscarinic acetylcholine receptor M4 (Homo sapiens) (UniProt P08173) (assay: compounds altering M4/GIRK thallium flux, either direction, primary screen, M4 allosteric agonist project, cell-based, HEK293 M4/GIRK, BTC-AM (AID 625;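 also: thallium influx through GIRK channels coupled to M4 in HEK293 cells with BTC-AM dye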)). Conditions: at 10 µM, actives lie on both sides.

Row | Structure (SMILES) | fluorescence slope
1 | O=C(OC1CN2CCC1CC2)C(CO)(c1ccccc1)c1ccccc1 (stereo unspecified) | inactive: 0.00487
